Laboratory results: patent publication US10172961B2 (priority 2014, dated 2019)
pIC50: −log10 of the molar value.

The chains behind the UniProt entries cited, without tags or fusion partners. Residues count along the entry.
UniProt P06828, 110-539 limits assumed: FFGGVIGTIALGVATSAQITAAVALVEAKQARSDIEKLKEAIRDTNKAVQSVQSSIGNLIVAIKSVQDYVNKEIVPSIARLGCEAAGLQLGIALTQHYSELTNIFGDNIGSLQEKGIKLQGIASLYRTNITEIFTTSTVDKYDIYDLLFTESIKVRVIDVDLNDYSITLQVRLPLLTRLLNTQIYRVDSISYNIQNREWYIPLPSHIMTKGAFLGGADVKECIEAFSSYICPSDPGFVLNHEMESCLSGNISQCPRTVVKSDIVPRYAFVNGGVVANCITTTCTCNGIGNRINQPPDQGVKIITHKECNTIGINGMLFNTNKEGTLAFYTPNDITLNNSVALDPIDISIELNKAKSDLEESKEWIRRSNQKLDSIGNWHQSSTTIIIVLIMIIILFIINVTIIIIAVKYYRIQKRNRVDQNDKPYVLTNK
UniProt P06828, 19-109 partner limits assumed: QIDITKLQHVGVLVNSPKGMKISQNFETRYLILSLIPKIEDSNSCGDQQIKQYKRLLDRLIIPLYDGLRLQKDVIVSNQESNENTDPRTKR

biological target: HPIV3 envelope glycoproteins (Human parainfluenza 3 virus, UniProt P06828); experiment: cell-based; design: species or system Human parainfluenza virus type 3; conditions: not given

Q: `CC[C@H](C)[C@H](NC(=O)[C@H](CO)NC(=O)[C@H](CC(=O)O)NC(=O)[C@H](CC(C)C)NC(=O)[C@H](CCCCN)NC(=O)CNC(=O)[C@H](CC(N)=O)NC(=O)[C@H](CO)NC(=O)[C@H](CCCNC(=N)N)NC(=O)[C@H](CCCNC(=N)N)NC(=O)[C@@H](NC(=O)[C@H](Cc1c[nH]c2ccccc12)NC(=O)[C@H](CCC(=O)O)NC(=O)[C@H](CCCCN)NC(=O)[C@H](CO)NC(=O)[C@H](CCC(=O)O)NC(=O)[C@H](CCC(=O)O)NC(=O)[C@H](CC(C)C)NC(=O)[C@H](CC(=O)O)NC(=O)[C@H](CO)NC(=O)[C@H](CCCCN)NC(=O)[C@H](C)NC(=O)[C@H](CCCCN)NC(=O)[C@H](CC(N)=O)NC(=O)[C@H](CC(C)C)NC(=O)[C@@H](NC(=O)[C@@H](NC(=O)[C@H](CO)NC(=O)[C@@H](NC(=O)[C@H](CC(=O)O)NC(=O)[C@@H](NC(=O)[C@@H]1CCCN1C(=O)[C@H](CC(=O)O)NC(=O)[C@H](CC(C)C)NC(=O)[C@H](C)NC(=O)[C@@H](NC(C)=O)C(C)C)[C@@H](C)CC)[C@@H](C)CC)[C@@H](C)CC)C(C)C)[C@@H](C)CC)C(=O)NCC(=O)N[C@@H](CO)C(=O)NCC(=O)N[C@@H](CO)C(=O)NCC(=O)N[C@@H](CS)C(N)=O` [VG] was tested. Which pIC50 did it give?
A: The pIC50 was less than 6.00.

same assay, conditions: read-out: IC90 nM, in vitro efficacy

Q: `CC[C@H](C)[C@H](NC(=O)[C@H](CO)NC(=O)[C@H](CC(=O)O)NC(=O)[C@H](CC(C)C)NC(=O)[C@H](CCCCN)NC(=O)CNC(=O)[C@H](CC(N)=O)NC(=O)[C@H](CO)NC(=O)[C@H](CCCNC(=N)N)NC(=O)[C@H](CCCNC(=N)N)NC(=O)[C@@H](NC(=O)[C@H](Cc1c[nH]c2ccccc12)NC(=O)[C@H](CCC(=O)O)NC(=O)[C@H](CCCCN)NC(=O)[C@H](CO)NC(=O)[C@H](CCC(=O)O)NC(=O)[C@H](CCC(=O)O)NC(=O)[C@H](CC(C)C)NC(=O)[C@H](CC(=O)O)NC(=O)[C@H](CO)NC(=O)[C@H](CCCCN)NC(=O)[C@H](C)NC(=O)[C@H](CCCCN)NC(=O)[C@H](CC(N)=O)NC(=O)[C@H](CC(C)C)NC(=O)[C@@H](NC(=O)[C@@H](NC(=O)[C@H](CO)NC(=O)[C@@H](NC(=O)[C@H](CC(=O)O)NC(=O)[C@@H](NC(=O)[C@@H]1CCCN1C(=O)[C@H](CC(=O)O)NC(=O)[C@H](CC(C)C)NC(=O)[C@H](C)NC(=O)[C@@H](NC(C)=O)C(C)C)[C@@H](C)CC)[C@@H](C)CC)[C@@H](C)CC)C(C)C)[C@@H](C)CC)C(=O)NCC(=O)N[C@@H](CO)C(=O)NCC(=O)N[C@@H](CO)C(=O)N[C@@H](CSCC(=O)NCCOCCOCCOCCOCCC(=O)O[C@H]1CC[C@@]2(C)C(=CC[C@H]3[C@@H]4CC[C@H]([C@H](C)CCCC(C)C)[C@@]4(C)CC[C@@H]32)C1)C(N)=O` [VG-PEG4-chol] was tested. Which IC90 did it give?
A: The IC90 was 100 nM.

Q: `CC[C@H](C)[C@H](NC(=O)[C@H](CO)NC(=O)[C@H](CC(=O)O)NC(=O)[C@H](CC(C)C)NC(=O)[C@H](CCCCN)NC(=O)CNC(=O)[C@H](CC(N)=O)NC(=O)[C@H](CO)NC(=O)[C@H](CCCNC(=N)N)NC(=O)[C@H](CCCNC(=N)N)NC(=O)[C@@H](NC(=O)[C@H](Cc1c[nH]c2ccccc12)NC(=O)[C@H](CCC(=O)O)NC(=O)[C@H](CCCCN)NC(=O)[C@H](CO)NC(=O)[C@H](CCC(=O)O)NC(=O)[C@H](CCC(=O)O)NC(=O)[C@H](CC(C)C)NC(=O)[C@H](CC(=O)O)NC(=O)[C@H](CO)NC(=O)[C@H](CCCCN)NC(=O)[C@H](C)NC(=O)[C@H](CCCCN)NC(=O)[C@H](CC(N)=O)NC(=O)[C@H](CC(C)C)NC(=O)[C@@H](NC(=O)[C@@H](NC(=O)[C@H](CO)NC(=O)[C@@H](NC(=O)[C@H](CC(=O)O)NC(=O)[C@@H](NC(=O)[C@@H]1CCCN1C(=O)[C@H](CC(=O)O)NC(=O)[C@H](CC(C)C)NC(=O)[C@H](C)NC(=O)[C@@H](NC(C)=O)C(C)C)[C@@H](C)CC)[C@@H](C)CC)[C@@H](C)CC)C(C)C)[C@@H](C)CC)C(=O)NCC(=O)N[C@@H](CO)C(=O)NCC(=O)N[C@@H](CO)C(=O)N[C@@H](CSCC(=O)NCCOCCOCCOCCOCCOCCOCCOCCOCCOCCOCCOCCOCCOCCOCCOCCOCCOCCOCCOCCOCCOCCOCCOCCOCCC(=O)O[C@H]1CC[C@@]2(C)C(=CC[C@H]3[C@@H]4CC[C@H]([C@H](C)CCCC(C)C)[C@@]4(C)CC[C@@H]32)C1)C(N)=O` [VG-PEG24-chol] was tested. Which IC90 did it give?
A: The IC90 was 50 nM.

Q: For `CC[C@H](C)[C@H](NC(=O)[C@H](CO)NC(=O)[C@H](CC(=O)O)NC(=O)[C@H](CC(C)C)NC(=O)[C@H](CCCCN)NC(=O)CNC(=O)[C@H](CC(N)=O)NC(=O)[C@H](CO)NC(=O)[C@H](CCCNC(=N)N)NC(=O)[C@H](CCCNC(=N)N)NC(=O)[C@@H](NC(=O)[C@H](Cc1c[nH]c2ccccc12)NC(=O)[C@H](CCC(=O)O)NC(=O)[C@H](CCCCN)NC(=O)[C@H](CO)NC(=O)[C@H](CCC(=O)O)NC(=O)[C@H](CCC(=O)O)NC(=O)[C@H](CC(C)C)NC(=O)[C@H](CC(=O)O)NC(=O)[C@H](CO)NC(=O)[C@H](CCCCN)NC(=O)[C@H](C)NC(=O)[C@H](CCCCN)NC(=O)[C@H](CC(N)=O)NC(=O)[C@H](CC(C)C)NC(=O)[C@@H](NC(=O)[C@@H](NC(=O)[C@H](CO)NC(=O)[C@@H](NC(=O)[C@H](CC(=O)O)NC(=O)[C@@H](NC(=O)[C@@H]1CCCN1C(=O)[C@H](CC(=O)O)NC(=O)[C@H](CC(C)C)NC(=O)[C@H](C)NC(=O)[C@@H](NC(C)=O)C(C)C)[C@@H](C)CC)[C@@H](C)CC)[C@@H](C)CC)C(C)C)[C@@H](C)CC)C(=O)NCC(=O)N[C@@H](CO)C(=O)NCC(=O)N[C@@H](CO)C(=O)N[C@@H](CSCC(=O)O[C@H]1CC[C@@]2(C)C(=CC[C@H]3[C@@H]4CC[C@H]([C@H](C)CCCC(C)C)[C@@]4(C)CC[C@@H]32)C1)C(N)=O` [VG-chol], which IC90 is on record?
A: The IC90 was greater than 1000 nM.

Q: Which IC90 does the source give for `CC[C@H](C)[C@H](NC(=O)[C@H](CO)NC(=O)[C@H](CC(=O)O)NC(=O)[C@H](CC(C)C)NC(=O)[C@H](CCCCN)NC(=O)CNC(=O)[C@H](CC(N)=O)NC(=O)[C@H](CO)NC(=O)[C@H](CCCNC(=N)N)NC(=O)[C@H](CCCNC(=N)N)NC(=O)[C@@H](NC(=O)[C@H](Cc1c[nH]c2ccccc12)NC(=O)[C@H](CCC(=O)O)NC(=O)[C@H](CCCCN)NC(=O)[C@H](CO)NC(=O)[C@H](CCC(=O)O)NC(=O)[C@H](CCC(=O)O)NC(=O)[C@H](CC(C)C)NC(=O)[C@H](CC(=O)O)NC(=O)[C@H](CO)NC(=O)[C@H](CCCCN)NC(=O)[C@H](C)NC(=O)[C@H](CCCCN)NC(=O)[C@H](CC(N)=O)NC(=O)[C@H](CC(C)C)NC(=O)[C@@H](NC(=O)[C@@H](NC(=O)[C@H](CO)NC(=O)[C@@H](NC(=O)[C@H](CC(=O)O)NC(=O)[C@@H](NC(=O)[C@@H]1CCCN1C(=O)[C@H](CC(=O)O)NC(=O)[C@H](CC(C)C)NC(=O)[C@H](C)NC(=O)[C@@H](NC(C)=O)C(C)C)[C@@H](C)CC)[C@@H](C)CC)[C@@H](C)CC)C(C)C)[C@@H](C)CC)C(=O)NCC(=O)N[C@@H](CO)C(=O)NCC(=O)N[C@@H](CO)C(=O)NCC(=O)N[C@@H](CS)C(N)=O` [VG] here?
A: Its IC90 is greater than 1000 nM.

Q: Which IC90 does the source give for `CC[C@H](C)[C@H](NC(=O)[C@H](CO)NC(=O)[C@H](CC(=O)O)NC(=O)[C@H](CC(C)C)NC(=O)[C@@H](NC(=O)[C@H](CCCCN)NC(=O)[C@H](CC(N)=O)NC(=O)[C@H](CO)NC(=O)[C@H](CCCNC(=N)N)NC(=O)[C@H](CCCNC(=N)N)NC(=O)[C@@H](NC(=O)[C@H](Cc1c[nH]c2ccccc12)NC(=O)[C@H](CCC(=O)O)NC(=O)[C@H](CCCCN)NC(=O)[C@H](CO)NC(=O)[C@H](CCC(=O)O)NC(=O)[C@H](CCC(=O)O)NC(=O)[C@H](CC(C)C)NC(=O)[C@H](CC(=O)O)NC(=O)[C@H](CO)NC(=O)[C@H](CCCCN)NC(=O)[C@@H](NC(=O)[C@H](CCCCN)NC(=O)[C@H](CC(N)=O)NC(=O)[C@H](CC(C)C)NC(=O)[C@@H](NC(=O)[C@@H](NC(=O)[C@H](CO)NC(=O)[C@@H](NC(=O)[C@H](CC(=O)O)NC(=O)[C@@H](NC(=O)[C@@H]1CCCN1C(=O)[C@H](CC(=O)O)NC(=O)[C@H](CC(C)C)NC(=O)[C@H](C)NC(=O)[C@@H](NC(C)=O)C(C)C)[C@@H](C)CC)[C@@H](C)CC)[C@@H](C)CC)C(C)C)[C@@H](C)CC)[C@@H](C)CC)[C@@H](C)CC)C(=O)NCC(=O)N[C@@H](CO)C(=O)NCC(=O)N[C@@H](CO)C(=O)NCC(=O)N[C@@H](CSCC(=O)NCCOCCOCCOCCOCCC(=O)O[C@H]1CC[C@@]2(C)C(=CC[C@H]3[C@@H]4CC[C@H]([C@H](C)CCCC(C)(C)O)[C@@]4(C)CC[C@@H]32)C1)C(N)=O` [VIKI-PEG4-25^OHchol] here?
A: The IC90 was greater than 1000 nM.
